# Measurements: patent US12103920B2, “Cereblon binding compounds, compositions thereof, and methods of treatment therewith” (Celgene Corporation, priority 2020, dated 2024)
# Protein sequences, listed by entry. Tags and fused reporters are not part of them. Lines headed by an entry give the natural chain unless they say otherwise; changes in a name come on top.
# UniProt P10275: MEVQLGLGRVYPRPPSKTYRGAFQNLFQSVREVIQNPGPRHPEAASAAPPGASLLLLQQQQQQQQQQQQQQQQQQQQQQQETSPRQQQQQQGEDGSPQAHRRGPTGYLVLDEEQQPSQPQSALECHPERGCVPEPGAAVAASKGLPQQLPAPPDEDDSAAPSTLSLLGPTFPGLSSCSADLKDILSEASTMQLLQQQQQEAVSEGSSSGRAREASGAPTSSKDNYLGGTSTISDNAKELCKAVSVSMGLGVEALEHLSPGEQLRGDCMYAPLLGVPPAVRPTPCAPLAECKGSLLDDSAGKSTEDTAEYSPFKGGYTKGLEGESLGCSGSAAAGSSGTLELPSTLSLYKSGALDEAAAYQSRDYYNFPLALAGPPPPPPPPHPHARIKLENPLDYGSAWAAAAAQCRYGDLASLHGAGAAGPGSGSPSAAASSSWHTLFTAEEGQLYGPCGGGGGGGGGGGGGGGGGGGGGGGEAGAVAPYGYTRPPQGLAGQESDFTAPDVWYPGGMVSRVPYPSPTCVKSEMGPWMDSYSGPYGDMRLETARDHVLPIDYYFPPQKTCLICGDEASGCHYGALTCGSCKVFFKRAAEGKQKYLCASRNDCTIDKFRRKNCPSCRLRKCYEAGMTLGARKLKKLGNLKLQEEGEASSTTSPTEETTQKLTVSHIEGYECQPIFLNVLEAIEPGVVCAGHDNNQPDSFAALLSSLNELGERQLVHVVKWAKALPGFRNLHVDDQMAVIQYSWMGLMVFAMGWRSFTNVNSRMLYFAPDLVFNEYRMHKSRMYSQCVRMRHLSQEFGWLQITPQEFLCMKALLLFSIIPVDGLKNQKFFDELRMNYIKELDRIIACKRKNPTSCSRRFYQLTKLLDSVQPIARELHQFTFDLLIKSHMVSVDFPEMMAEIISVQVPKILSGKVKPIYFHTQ
# Molecular target: T1, AR protein in VCaP cells (Homo sapiens, UniProt P10275)
# T1 construct: endogenous in cells; host or cells: VCaP cells
# Experiment: VCAP AR Degradation Assay
# Assay type: cell-based
# Conditions: 24 h, AR ELISA
# Method: VCAP AR Degradation Assay. Test compounds were pre-dispensed into a Corning CellBind 96-well clear bottom plate (Cat #3300) using an acoustic dispenser to make a 10-point concentration series at 1:3 dilution for each compound. The final top concentration of each compound was 5 μM. DMSO at a final concentration of 0.1% was used as a control. VCaP cells cultured in DMEM with 8% fetal bovine serum (FBS) were seeded at 50K cells per well in a 200 μL volume into the compound plate and incubated at 37° C. in a CO2 incubator for 24 h. The medium was carefully removed from the cells and the plate was placed on ice. […] AR levels in compound-treated wells were normalized to that of DMSO control and expressed as percent of control (PoC) (y). A Four Parameter Logistic Model (Sigmoidal Dose-Response Model) was used to determine the compound's DC50, and EC50, using the following equation: y=(A+((B−A)/(1+((C/x)^D)))) • A=YMin (lowest AR level normalized to DMSO control in response to compound treatment, as determined by curve fit) • B=YMax (maximum AR level as determined by curve fit) • C=EC50 • D=Hill Slope • x=compound concentration • EC50=the concentration of compound when y=(YMax−YMin)/2 • DC50=the concentration of the compound when y=50% of DMSO control (50% AR degradation) • y=AR protein level normalized to DMSO control […]
substance,measurement,setting,value
"N-(3-Chloro-5-((2,6-dioxopiperidin-3-yl)amino)phenyl)-2-((trans)-4-(3-((1r,4S)-4-(3-(4-cyano-3-(trifluoromethyl)phenyl)-5,5-dimethyl-4-oxo-2-thioxoimidazolidin-1-yl)cyclohexyl)propyl)-2,6-dimethylpiperazin-1-yl)acetamide [Cmpd 37]",DC50,concentration at 50% of DMSO control (50% AR degradation),10 to 100 nM
same,Y,lowest measured AR level normalized to DMSO control,* (0<Y≤15%)
